The values that follow come from US8258098B2, “Antitumoral treatments” (Pharma Mar, S.A., priority 2006, dated 2012).

Experiment [1] deals with LOX-IMVI melanoma tumor xenografts. The experiment can be described thus: Net tumor volume in tumor xenografts. Format: in vivo, female athymic mice. As to conditions: DAY 6, Aplidine 50 μg/kg, DTIC 30 mg/kg, Carboplatin 25 mg/kg, i.p. From the text:
(§1) Athymic nude female mice were received from Harlan Sprague Dawley, Madison, Wis. at 4-5 weeks of age. Mice were acclimated to the laboratory for at least one week prior to implantation of tumor. Animals were housed in static cages with food and water allowed ad libitum. Experimental animals were implanted with either tumor fragments derived from transplantation established human tumors or with cells obtain directly from in vitro culture. Tumors were implanted subcutaneously on the right flank on Day 0.
(§2) Tumor size measurements were recorded twice weekly beginning on day 4 or 5 using vernier calipers. The formula to calculate volume for a prolate ellipsoid was used to estimate tumor volume from 2-dimensional tumor measurements: tumor volume (mm^3)=(length×width^2)÷2. Assuming unit density, volume was converted to weight (i.e., 1 mm^3=1 mg). […] Treatments were initiated and administered on an individual body weight basis. A dose range finding study was performed on each tumor model to determine the appropriate dose level of each compound used in the combination studies.

Experiment [2] deals with MRI-H187 melanoma tumor xenografts. The experiment can be described thus: Net tumor volume in tumor xenografts. As to conditions: MRI-H187, DAY 41; Aplidine 50 μg/kg, DTIC 40 mg/kg, Carboplatin 25 mg/kg, i.p. Format: in vivo, female athymic mice.
Excerpt: as §1, §2

The structures appear in SMILES notation.

For `CN(C)/N=N/c1[nH]cnc1C(N)=O` [DTIC, dacarbazine], the “Net Tumor Volume ± S.E.M.” value in experiment [1] is listed as 105 ± 5 mg; in experiment [2], 1182 ± 324 mg.
